This data set concerns 6-O-α-D-galactopyranosyl-D-glucose. Description: purified protein, by the assay type. Conditions: other: recombinant Aga-I, pH 8, Lineweaver-Burk plots.

The term Km denotes the concentration of substrate that gives half-maximal velocity.

On to “recombinant Aga-I (alkaline-α-galactosidase I) (Cucumis melo)”, for which the Km is 6 mM.
